# Assay results from PubChem BioAssay AID602405 (Broad Institute, 2012).
# Only a part is listed here, and it is no random draw. The source made the active and inactive calls. Rule as the data show it: active = inhibition above about 16% (passing the limit was not always enough); inconclusive = no clear call, values can overlap the other calls; inactive = below that.
# Test system: UDP-N-acetylbacillosamine N-acetyltransferase PglD (Campylobacter jejuni)
# Test: blockers of PglD enzyme activity – biochemical, DTNB colorimetric, single point, primary screen (AID 602405)
# Conditions: purified PglD enzyme, DTNB colorimetric CoA detection; at 12.5 µM; active compounds read high
row,SMILES,inhibition
1,Clc1n[nH]nc1-c1nn[nH][15n]1,inactive: -0.282%
2,O=P1(N(CCCl)CCCl)NCCC(C(F)(F)F)O1 (stereo not given),inactive: -1.52%
3,CC(C)(C)C(=O)NC(Sc1ncccn1)C(Cl)(Cl)Cl (stereo not given),inactive: 0.698%
4,CN(CCCl)Cc1cc(Cl)c(NC2=NCCN2)c(Cl)c1,inactive: -0.432%
5,CCC1=CC2Cc3nc4ccc(Cl)cc4c(N)c3C(C1)C2 (stereo not given),inactive: 2.88%
6,O=P1(Nc2ccccn2)COc2ccccc2OC1,inactive: -1.49%
7,CCOP(=O)(NC(=NC(C)c1ccccc1)NC(C)c1ccccc1)OCC (stereo not given),inactive: -4.07%
8,CN(C(=O)Cc1ccc(Cl)c(Cl)c1)[C@@H]1CCCC[C@H]1N1CCCC1,inactive: 1.41%
9,CC(C)/C=N\N=C(\N)N[N+](=O)[O-],inactive: -1.25%
10,Cc1nn(-c2ccccc2)c2c1P(=O)(N1CCOCC1)N(C)C(c1ccccc1)=N2 (stereo not given),inactive: -9.65%
11,Cc1ccc(C(=O)OC2CN3CCC2CC3)cc1 (stereo not given),inactive: -3.44%
12,CC1CCC(C(C)C)C(OP(=O)(Nc2ccccn2)c2ccccc2)C1 (stereo not given),inactive: 1.31%
13,NS(=O)(=O)c1cccc(NC(=O)COC(=O)C(O)(c2ccccc2)c2ccccc2)c1,inactive: 1.28%
14,O=P1(Nc2ccc(Br)cn2)COc2ccccc2OC1,inactive: -2.13%
15,Cc1ccc(OCC(=O)OC2CN3CCC2CC3)cc1 (stereo not given),inactive: -0.784%
16,O=[As](O)(c1cccs1)c1cccs1,inactive: -1.65%
17,Nc1cccc([As](=O)(O)c2ccccc2)c1,inactive: 1.06%
18,O=P1(Nc2ncccn2)COc2ccccc2OC1,inactive: 1.59%
19,Cc1ccc(S(=O)(=O)N(CCCN)CCCc2c(C)nc(N)[nH]c2=O)cc1,inactive: 0.419%
20,Nc1ccccc1[As](=O)(O)c1ccccc1,inactive: -0.405%
21,CCOP1(=S)c2c(C)nn(CCC#N)c2N=C(c2ccccc2F)N1C (stereo not given),inactive: 0.627%
22,O=P(Nc1nccs1)(c1ccccc1)c1nc2ccccc2s1 (stereo not given),inactive: -2.4%
23,CN(C)C(=O)c1cc([N+](=O)[O-])cc2c1-c1c(cc([N+](=O)[O-])cc1[N+](=O)[O-])C2=O,inactive: 3.58%
24,O=[N+]([O-])c1ccc2c(c1)nnn2O,inactive: 8.69%
25,CN(C(=O)Cc1ccc(Cl)c(Cl)c1)[C@H]1CC[C@@]2(CCCO2)C[C@@H]1N1CCCC1,inactive: 0.594%

row,SMILES,inhibition
1,N#CCCN(C(=O)COC(=O)C(O)(c1ccccc1)c1ccccc1)c1ccc(F)cc1,inactive: 1.41%
2,CN(C(=O)Cc1ccccc1)[C@@H]1CC[C@]2(CCCO2)C[C@H]1N1CCCC1,inactive: 0.881%
3,CCOP1(=S)c2c(C)nn(CCC#N)c2N=C(c2ccc(F)cc2)N1C (stereo not given),inactive: -5.88%
4,NC(=O)Nc1ccc([As](=O)(O)O)cc1,inactive: -7.89%
5,O=[As](O)(c1cccc(O)c1)c1cccc(O)c1,inactive: 0.666%
6,Cc1cccc(OCC(=O)OC2CN3CCC2CC3)c1 (stereo not given),inactive: -0.187%
7,O=[As](O)(O)c1cccnc1,inactive: 0.076%
8,CS(=O)(=O)c1ccc(Cl)c(NC(=O)COC(=O)C(O)(c2ccccc2)c2ccccc2)c1,inactive: 4.15%
9,O=C(OC1CN2CCC1CC2)c1ccc(Cl)cc1 (stereo not given),inactive: 0.816%
10,CCCOP(=S)(Nc1nc(N)cc(=O)[nH]1)OCCC,inactive: -5.61%
11,Cc1ccc(NCCc2c([N+](=O)[O-])cc([N+](=O)[O-])cc2[N+](=O)[O-])cc1,inactive: 4.01%
12,Nc1cccc2c([As](=O)(O)O)cccc12,inactive: 5.22%
13,COc1cc(I)ccc1[As](=O)(O)O,inactive: 6.59%
14,O=P1(N(CCCl)CCCl)Nc2ccccc2N1,inactive: -3.02%
15,COc1ccc(CN2/C(=N\P(=O)(Oc3ccccc3)Oc3ccccc3)Cc3ccccc3C2C2CC2)cc1 (stereo not given),inactive: -1.37%
16,O=C(OC1CN2CCC1CC2)C12CC3CC(CC(C3)C1)C2 (stereo not given),inactive: -3.01%
17,Cc1cc(=O)[nH]c(N[N+](=O)[O-])n1,inactive: 7.72%
18,COc1ccc(N/C(=N/P(=O)(N2CCOCC2)N2CCOCC2)N2CCOCC2)cc1,inactive: -0.003%
19,Cc1ccc(OP(=O)(Nc2ccc([N+](=O)[O-])cn2)Oc2ccc(C)cc2)cc1,inactive: 4.05%
20,O=[As](O)(c1ccc(O)cc1)c1ccccc1O,inactive: 1.69%
21,C[As](=O)(O)c1cccc(C(=O)O)c1,inactive: -5.19%
22,O=[N+]([O-])c1ccc(-c2cc([N+](=O)[O-])c(O)c([N+](=O)[O-])c2)cc1,inactive: -6.74%
23,CCN(CC)C(=S)SC(NC=O)C(Cl)(Cl)Cl (stereo not given),inactive: -4.25%
24,O=C(OC1CN2CCC1CC2)c1cccc2[nH]cnc12 (stereo not given),inactive: 0.161%
25,CC(C)c1ccc(OP(=O)(Nc2ccccn2)Oc2ccccc2F)cc1 (stereo not given),inactive: 1.83%

row,SMILES,inhibition
1,ClCCSc1nnc(-c2cccnc2)o1,inactive: 0.656%
2,CCCCOc1ccc(C(=O)NCC2(N3CCCCC3)CCCCC2)cc1OC,inactive: -1.68%
3,COP(=O)(OC)N1CC1c1ccccc1 (stereo not given),inactive: 2.67%
4,CC1CCNP(=O)(N(CCCl)CCCl)O1 (stereo not given),inactive: -0.842%
5,O=C(O)C(O)c1ccc(N(CCCl)CCCl)cc1 (stereo not given),inactive: -0.768%
6,CCOC(=O)Nc1ccc([As](=O)(O)O)c(O)c1,inactive: 1.76%
7,O=[N+]([O-])c1ccc(Nc2ccc(Oc3ccc([N+](=O)[O-])cc3[N+](=O)[O-])cc2)c([N+](=O)[O-])c1,inactive: 5.37%
8,O=C(Nc1ccncc1[N+](=O)[O-])c1ccc([N+](=O)[O-])cc1[N+](=O)[O-],inactive: -1.62%
9,O=C(O)C(=O)c1ccc(N(CCCl)CCCl)cc1,inactive: 1.18%
10,COP1(=S)c2c(C)nn(CCC#N)c2N=C(c2ccc(F)cc2)N1C (stereo not given),inactive: -3.07%
11,CCC(C)N(CC(C)C)C(=S)SC(NC(C)=O)C(Cl)(Cl)Cl (stereo not given),inactive: -0.752%
12,CCOC(=O)c1ccc(NC(=O)C(C)(CCl)SC)cc1 (stereo not given),inactive: -5.12%
13,O=C(OC1CN2CCC1CC2)c1cccc([N+](=O)[O-])c1 (stereo not given),inactive: -1.85%
14,CC(=O)N1C2C3N(C(C)=O)C1C1N(C(C)=O)C(C(N1C(C)=O)N3C(C)=O)N2C(C)=O,inactive: -2.02%
15,O=[N+]([O-])c1cccc2n[nH]nc12,inactive: -2.38%
16,CCc1nc2c(n1)c1c(non1O)c1c2no[n+]1[O-],inactive: -2.26%
17,COc1ccc(C2=NCC(CBr)S2)cc1 (stereo not given),inactive: -4.19%
18,CC(C)c1nc(Nc2ccccc2)n(P(=O)(N(C)C)N(C)C)n1,inactive: -7.18%
19,c1cc(-c2nn[nH]n2)ccc1-c1nn[nH]n1,inactive: -1.16%
20,CC1CCN(C(=O)Oc2c(Cl)cc(Cl)c3cccnc23)CC1,inactive: 5.33%
21,Nc1ccc([As](=O)(O)c2ccc(N)cc2)cc1,inactive: 5.34%
22,C[N+]1=C2C=CC=CC=C2SC12C([N+](=O)[O-])=CC([N+](=O)[O-])=C[C-]2[N+](=O)[O-] (stereo not given),inactive: -2.04%
23,O=C(Nc1cc([As](=O)(O)O)ccc1O)c1ccccc1,inactive: 1.42%
24,O=P1(N(CCCl)CCCl)OCCCS1 (stereo not given),inactive: 0.339%
25,O=[N+]([O-])c1cccc(NC2=NCC(CBr)S2)c1 (stereo not given),inactive: -3.3%

row,SMILES,inhibition
1,O=C(O)CNc1ccc([As](=O)(O)O)cc1,inactive: -7.53%
2,CCOP(=O)(Nc1ccccc1)OCC,inactive: -2.99%
3,CN(C(=O)Cc1ccc(Cl)c(Cl)c1)[C@H]1CCCC[C@@H]1N1CCCC1,inactive: -1.2%
4,O=C(O)c1ccccc1[As](=O)(O)O,inactive: 1.15%
5,CC(=O)Nc1ccc([As](=O)(O)O)cc1,inactive: 8.86%
6,CCCC1OP(N)(=O)OCC1CC (stereo not given),inactive: 3.98%
7,CN(C)P(=O)(N(C)C)n1c(Nc2ccccc2)nnc1-c1ccccc1,inactive: 3.57%
8,Nc1cccc2ccc([As](=O)(O)O)cc12,inactive: 4.69%
9,Cc1ccc(OP(=O)(Nc2nccs2)Oc2ccc(C)cc2)cc1,inactive: 4.34%
10,Clc1ccc(Cl)c(NC2=NCC(CBr)S2)c1 (stereo not given),inactive: -3.27%
11,CN1CCCC(OC(=O)C(c2ccccc2)c2ccccc2)C1 (stereo not given),inactive: 8.99%
12,CN(C(=O)Cc1ccc(Cl)c(Cl)c1)[C@H]1CCCC[C@H]1N1CCCC1,inactive: -1.48%
13,Cc1ccc(N/C(=N/P(=O)(N2CCOCC2)N2CCOCC2)N2CCOCC2)cc1,inactive: 12%
14,CC(C)CC(=O)NC(Sc1ccc(Cl)cc1)C(Cl)(Cl)Cl (stereo not given),inactive: -2.11%
15,Oc1ccccc1CNc1ccccn1,inactive: 3.88%
16,O=C(NC(Sc1ccncn1)C(Cl)(Cl)Cl)c1ccccc1 (stereo not given),inactive: 0.07%
17,CCc1cc(O)c([N+](=O)[O-])c(C)c1[N+](=O)[O-],inactive: -1.79%
18,O=P1(Nc2nc3ccc(Cl)cc3s2)COc2ccccc2O1 (stereo not given),inactive: -1.06%
19,CC(=O)Nc1ccc([As](=O)(O)O)c(O)c1,inactive: -4.75%
20,CC(=O)Nc1ccc(Oc2c([N+](=O)[O-])cc([N+](=O)[O-])cc2[N+](=O)[O-])cc1,inactive: -3.08%
21,CC(=O)c1ccc(N2CC2c2ccncc2)cc1 (stereo not given),inactive: 3.74%
22,Cc1ccccc1CN(C)C(=O)COC(=O)C(O)(c1ccccc1)c1ccccc1,inactive: -3.64%
23,C[C@@H]1C=CCP(=O)(Oc2ccccc2)O1 (stereo not given in full),inactive: -4.6%
24,C[C@H]1OP(=O)(Oc2ccccc2)C[C@@H]2O[C@@H]21 (stereo not given in full),inactive: 2.61%
25,O=P1(N(CCCl)CCCl)OCCC2CCCCN21 (stereo not given),inactive: 7.38%
